Values quoted from earlier work as cited in US20110039877A1, “USE OF 3, 11B-CIS-DIHYDROTETRABENAZINE IN THE TREATMENT OF MULTIPLE SCLEROSIS AND AUTOIMMUNE MYELITIS” (Biovail Laboratories International (Barbados) S.R.L., priority 2007, published 2011).

The chains behind the UniProt entries cited, without tags or fusion partners.
UniProt Q01827, whole entry: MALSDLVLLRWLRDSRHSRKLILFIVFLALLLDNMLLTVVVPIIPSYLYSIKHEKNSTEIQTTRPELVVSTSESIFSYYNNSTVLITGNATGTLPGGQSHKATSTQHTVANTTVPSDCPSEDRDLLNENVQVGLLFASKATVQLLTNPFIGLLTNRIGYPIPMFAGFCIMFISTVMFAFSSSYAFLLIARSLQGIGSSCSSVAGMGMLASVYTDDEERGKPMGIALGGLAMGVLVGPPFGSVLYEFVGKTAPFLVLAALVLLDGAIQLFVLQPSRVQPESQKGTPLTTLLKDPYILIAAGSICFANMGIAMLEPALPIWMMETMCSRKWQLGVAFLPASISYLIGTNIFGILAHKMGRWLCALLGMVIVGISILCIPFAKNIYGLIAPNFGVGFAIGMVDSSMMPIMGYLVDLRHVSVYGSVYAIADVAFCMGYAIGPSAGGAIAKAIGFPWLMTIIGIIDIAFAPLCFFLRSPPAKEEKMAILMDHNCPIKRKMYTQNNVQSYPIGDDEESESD

Target: [^3H]methoxytetrabenazine binding (VMAT2) (Rattus norvegicus, UniProt Q01827)
Conditions: in vitro; cited from earlier work

SMILES: COc1cc2c(cc1O[11CH3])CCN1C[C@@H](CC(C)C)[C@H](O)C[C@H]21 (single isomer, unassigned) [(+)-α-[^11C]dihydrotetrabenazine]
- Ki for [^3H]methoxytetrabenazine relative to the Ki of the other α-isomer: > 2000 fold
